According to PubChem BioAssay AID504700 (The Scripps Research Institute Molecular Screening Center, 2011):
This is a selection; strong and weak results do not stand in their true shares. Calls of active or inactive are those of the source.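 Rule for the calls: active = activation above a cutoff set at the mean over all compounds plus 3 SD (cut at about 18% in these data); inactive = the rest.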

Sequences of proteins named here, by UniProt entry; tags and fusion partners are left off.
UniProt P31323, whole entry, looked up: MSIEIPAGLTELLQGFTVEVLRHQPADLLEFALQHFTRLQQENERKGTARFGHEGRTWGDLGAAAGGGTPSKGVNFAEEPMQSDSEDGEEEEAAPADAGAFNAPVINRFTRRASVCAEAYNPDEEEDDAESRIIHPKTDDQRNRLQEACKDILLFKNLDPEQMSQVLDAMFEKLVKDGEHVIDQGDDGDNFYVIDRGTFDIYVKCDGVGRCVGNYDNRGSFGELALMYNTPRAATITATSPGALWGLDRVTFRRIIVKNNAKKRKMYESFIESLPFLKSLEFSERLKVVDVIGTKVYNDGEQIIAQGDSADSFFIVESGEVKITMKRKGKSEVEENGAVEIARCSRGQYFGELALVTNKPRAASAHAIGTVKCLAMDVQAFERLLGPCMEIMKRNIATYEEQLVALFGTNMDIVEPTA

The compounds below were run against cAMP-dependent protein kinase catalytic subunit beta (Homo sapiens) + cAMP-dependent protein kinase type II-beta regulatory subunit (Homo sapiens) (UniProt P22694+P31323) (assay: compounds dissociating PKAc from R2B subunit – biochemical, fluorescence polarization, Cy5-IP20, human, primary screen (AID 504700;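 note: higher means more holoenzyme dissociation and a rise in polarization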)). Settings: PKA-R2B holoenzyme dissociation, at 11.4 µM, hits give high values, 0% DMSO only, 100% 113 µM cGMP, R2B truncated from residue 108, S112A mutant.

Row | Structure (SMILES) | activation
1 | O=P(Nc1ccccn1)(c1ccc(Br)cc1)c1ccc(Br)cc1 | inactive: -5.33%
2 | CN(C)C1(CNC(=O)c2ccc(Cl)c(S(N)(=O)=O)c2)CCCCC1 | inactive: -6.86%
3 | COc1ccc(N)c([N+](=O)[O-])c1[N+](=O)[O-] | inactive: -0.7%
4 | O=P(Nc1nc2ccccc2s1)(c1ccccc1)c1ccccc1 | inactive: -1.55%
5 | C[C@H]1OP(=O)(Oc2ccccc2)[C@H](O)[C@H](O)[C@H]1N=[N+]=[N-] (stereo not given in full) | inactive: -2.09%
6 | O=[As](O)(c1ccccc1)c1ccc(O)cc1 | inactive: -6.78%
7 | O=[N+]([O-])c1ccc(O)c(/C=N/Nc2ccc([N+](=O)[O-])cc2[N+](=O)[O-])c1 | inactive: -9.25%
8 | CC(=O)NC(SC(=S)N(C)C)C(Cl)(Cl)Cl (stereo not given) | inactive: 2.26%
9 | O=[N+]([O-])c1ncn(CCn2cnc([N+](=O)[O-])n2)n1 | inactive: -8.62%
10 | O=C(OC1CN2CCC1CC2)c1cccc(Cl)c1 (stereo not given) | inactive: 4.13%
11 | Nc1ccc([As](=O)(O)c2ccc([N+](=O)[O-])cc2)cc1 | inactive: -4.82%
12 | C(Cc1nn[nH]n1)Cc1nn[nH]n1 | inactive: -5.63%
13 | CC(C)C(=O)NC(Sc1ccccc1)C(Cl)(Cl)Cl (stereo not given) | inactive: -9.44%
14 | O=P(Nc1nccs1)(c1ccccc1)c1ccccc1 | inactive: 10.9%
15 | c1nnnn1CCn1cnnn1 | active: 18.6%
16 | O=P1(Nc2nc3ccc(Cl)cc3s2)COc2ccccc2O1 (stereo not given) | inactive: 2.42%
17 | CCOc1ccc(C2=NCC(CBr)S2)cc1 (stereo not given) | inactive: 2.38%
18 | CC(C)(C)C(=O)NC(Sc1ccccc1)C(Cl)(Cl)Cl (stereo not given) | inactive: 8.06%
19 | CCc1cc(O)c([N+](=O)[O-])c(C)c1[N+](=O)[O-] | inactive: -5.87%
20 | Cc1ccccc1CN(C)C(=O)COC(=O)C(O)(c1ccccc1)c1ccccc1 | inactive: -1.72%
21 | C[C@@H]1C=CCP(=O)(Oc2ccccc2)O1 (stereo not given in full) | inactive: -10.3%
22 | C[C@H]1OP(=O)(Oc2ccccc2)C[C@@H]2O[C@@H]21 (stereo not given in full) | inactive: -2.15%

Row | Structure (SMILES) | activation
23 | N#C/C(=C\c1ccc(N(CCBr)CCBr)cc1)C(N)=O | inactive: 2.5%
24 | CC(=O)c1ccc(N2CC2c2ccncc2)cc1 (stereo not given) | inactive: -1.06%
25 | COC(=O)C1(C)COP(=O)(NCc2ccccc2)OC1 (stereo not given) | inactive: 2.82%
26 | CC(=O)Nc1ccc([As](=O)(O)O)c(O)c1 | inactive: -1.66%
27 | CC(=O)Nc1ccc(Oc2c([N+](=O)[O-])cc([N+](=O)[O-])cc2[N+](=O)[O-])cc1 | inactive: -4.81%
28 | CCNC(=S)/N=C(\N)N[N+](=O)[O-] | inactive: -2.39%
29 | O=C(NC1CCS(=O)(=O)C1)NP(=S)(Oc1ccccc1)Oc1ccccc1 (stereo not given) | inactive: -5.61%
30 | O=P1(N(CCCl)CCCl)OCCC2CCCCN21 (stereo not given) | inactive: -14.2%
31 | O=C(OC1CN2CCC1CC2)c1ccccc1 (stereo not given) | inactive: -7.53%
32 | CCC(=O)N1C2C3N(C(=O)CC)C1C1N(C(=O)CC)C(C(N1C(=O)CC)N3C(=O)CC)N2C(=O)CC | inactive: 2.63%
33 | COC(=O)c1cc2c(s1)N=C(c1ccccc1)N(C)P2(=O)N1CCOCC1 (stereo not given) | inactive: 3.19%
34 | CC(=O)NC(SC(=S)N(CC(C)C)CC(C)C)C(Cl)(Cl)Cl (stereo not given) | inactive: -7.89%
35 | Cc1ccc(OP(=O)(Nc2ccccn2)Oc2ccc(C)cc2)cc1 | inactive: -1.24%
36 | Cc1ccccc1OP(=O)(Nc1ccccn1)Oc1ccccc1C | inactive: -7.47%
37 | CC(NC(=O)COC(=O)C(O)(c1ccccc1)c1ccccc1)c1ccccc1 (stereo not given) | inactive: 5.71%
38 | CN(C)C(=O)Oc1noc2ccccc12 | inactive: 1.35%
39 | O=c1c2cc([N+](=O)[O-])ccc2[nH]c2c([N+](=O)[O-])cc([N+](=O)[O-])cc12 | inactive: -6.37%
40 | CN(C)P(=O)(N(C)C)n1c(Nc2ccccc2)nnc1-c1ccccc1 | inactive: -2.1%
41 | O=P(Nc1nc2ccc(Cl)cc2s1)(c1ccccc1)c1ccccc1 | inactive: 2.52%
42 | O=C(O)c1ccccc1[As](=O)(O)O | inactive: -1.59%
43 | CC(=O)Nc1ccc([As](=O)(O)O)cc1 | inactive: -13.8%
44 | CCCC1OP(N)(=O)OCC1CC (stereo not given) | inactive: 1.42%

Row | Structure (SMILES) | activation
45 | CCOP(=O)(Nc1ccccc1)OCC | inactive: -4.28%
46 | Cc1cc(SC(NC(=O)c2ccc(F)cc2)C(Cl)(Cl)Cl)ncn1 (stereo not given) | inactive: -4.83%
47 | Cc1ccc(NP(=O)(Oc2ccccc2F)Oc2ccccc2F)nc1 | inactive: -7.9%
48 | CN(C(=O)Cc1ccc(Cl)c(Cl)c1)[C@H]1CCCC[C@@H]1N1CCCC1 | inactive: 10.2%
49 | Nc1cccc2ccc([As](=O)(O)O)cc12 | inactive: -11%
50 | CCN(N=Nc1nonc1N)c1nonc1N | inactive: -3.24%
51 | CN(C(=O)Cc1ccc(Cl)c(Cl)c1)[C@H]1CCCC[C@H]1N1CCCC1 | inactive: -1.74%
52 | Cc1ccc(N/C(=N/P(=O)(N2CCOCC2)N2CCOCC2)N2CCOCC2)cc1 | inactive: -6.97%
53 | NC(=O)c1cc([N+](=O)[O-])cc([N+](=O)[O-])c1N | inactive: -3.72%
54 | Clc1ccc(Cl)c(NC2=NCC(CBr)S2)c1 (stereo not given) | inactive: -5.33%
55 | CN1CCCC(OC(=O)C(c2ccccc2)c2ccccc2)C1 (stereo not given) | inactive: 4.83%
56 | COc1ccccc1OP(=O)(Nc1ccc(C)cn1)Oc1ccccc1OC | inactive: -3.1%
57 | Oc1ccccc1CNc1ccccn1 | inactive: -15.9%
58 | O=C(NC(Sc1ccncn1)C(Cl)(Cl)Cl)c1ccccc1 (stereo not given) | inactive: 2.21%
59 | CC(C)CC(=O)NC(Sc1ccc(Cl)cc1)C(Cl)(Cl)Cl (stereo not given) | inactive: -8.49%
60 | Nc1cc(N)c2nonc2c1[N+](=O)[O-] | inactive: -0.59%
61 | COc1ccc(C2=NCC(CBr)S2)cc1 (stereo not given) | inactive: -2.86%
62 | Cc1ccc(NP(=O)(Oc2ccccc2)Oc2ccccc2)nc1 | inactive: -7.81%
63 | CCc1nc2c(n1)c1c(non1O)c1c2no[n+]1[O-] | inactive: 8.88%
64 | O=[N+]([O-])c1cc([N+](=O)[O-])c(CCNc2ccccc2)c([N+](=O)[O-])c1 | inactive: 11.2%
65 | O=[N+]([O-])c1cccc2n[nH]nc12 | inactive: -5.57%
